For this assay, the species on record is Homo sapiens. As to the kind of experiment: Selectivity ratio of Ki for human beta1-adrenoceptor to Ki for human beta2-adrenoceptor.

Consider `CCC1=C(CC)CC2=C(C1)CC(NC[C@H](O)c1ccc(O)c3[nH]c(=O)ccc13)C2`, for which the Ratio Ki came out at 1.7.

The record behind these values is ChEMBL document CHEMBL2086302, “An investigation into the structure-activity relationships associated with the systematic modification of the β(2)-adrenoceptor agonist indacaterol” (Bioorg Med Chem Lett, 2012).
